Experimental data reported in patent US20260217707A1, “GLP-1R AGONISTS AND USES THEREOF” (Fochon Biosciences, Ltd., priority 2023, published 2026).

By UniProt entry, the sequences of proteins in these tests, tags left out. Residues count along the entry.
UniProt P43220, 24-463 limits assumed: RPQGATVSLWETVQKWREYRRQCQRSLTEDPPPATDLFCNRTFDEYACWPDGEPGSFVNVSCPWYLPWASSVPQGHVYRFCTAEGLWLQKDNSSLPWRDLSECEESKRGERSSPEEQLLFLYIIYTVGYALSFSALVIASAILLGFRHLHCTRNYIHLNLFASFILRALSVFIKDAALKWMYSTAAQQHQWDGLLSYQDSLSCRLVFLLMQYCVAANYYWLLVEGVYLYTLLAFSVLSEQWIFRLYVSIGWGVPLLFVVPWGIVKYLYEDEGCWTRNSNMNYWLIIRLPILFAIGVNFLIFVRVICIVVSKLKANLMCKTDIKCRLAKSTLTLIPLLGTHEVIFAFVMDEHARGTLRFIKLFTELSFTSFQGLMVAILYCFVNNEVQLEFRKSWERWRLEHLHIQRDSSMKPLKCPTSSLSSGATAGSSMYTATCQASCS

Biological target: GLP1R receptor (Homo sapiens, UniProt P43220)
Assay: cAMP assay: intracellular cAMP detected by TR-FRET
Conditions: read-out: cAMP Assay EC50, cells incubated with compound at 37° C. for 30 min, maximum concentration 12 μM
Description: Intracellular cAMP concentration was detected by TR-FRET method to evaluate the activity of drug-induced GLP1R receptor. The cells were prepared in an experimental buffer solution (HBSS, 20 mM HEPES (pH 7.5), 0.1% BSA, 500 μM IBMX) and inoculated into 384 cell culture plates with a inoculated density of 2000 cells and a inoculated volume of 15 μL per well. The compound was diluted by 3 times gradient with DMSO, 10 concentration gradients, and the 10 concentration gradients were diluted by 100 times in Buffer. The maximum concentration point of compound to be tested was 12 μM. The inoculated 384 cell plates were added with 5 μL prepared working solution and incubated at 37° C. for 30 min. Eu-cAMP tracer was diluted 50 times and Ulight-anti-cAMP 150 times by detection buffer (cAMP Kit, Perkin Elmer, cat #TRF0263). At first, 10 μL Eu-cAMP tracer was added to each experimental well, and then 10 μL Uligh-anti-cAMP was added to each experimental well. Centrifuged the assay plate at 200 g, RT, for 30 s, incubated it at 25° C. for 1 h. Collected the data by Envision 2105 microplate reader with a HTRF module. […]
The activation rate of each concentration of the tested compound to the positive drug was calculated by the formula % Activity=100 (SignalcmpdSignalAve_PC)/(SignalAve_VCSignalAve_PC)×100, EC50 values and nonlinear regression curve fits were obtained using GraphPad Prism software.

**Q.** For `Cc1cc(-n2nc3c(c2-n2cnn(-c4ccc5c(cnn5C)c4F)c2=O)[C@H](C)N(C(=O)c2cc4cc(C5CCOC(C)(C)C5)ccc4n2[C@@]2(c4noc(=O)[nH]4)C[C@@H]2C)CC3)cc(C)c1F` (stereo partly shown), which EC50 is on record?
**A.** 0.511 nM
